# Assay results: ChEMBL document CHEMBL1138940, “Design and synthesis of orally efficacious benzimidazoles as melanin-concentrating hormone receptor 1 antagonists” (Bioorg Med Chem Lett, 2006)
# Chains of the proteins cited; added tags and fusions are not shown.
# UniProt Q99705, whole entry: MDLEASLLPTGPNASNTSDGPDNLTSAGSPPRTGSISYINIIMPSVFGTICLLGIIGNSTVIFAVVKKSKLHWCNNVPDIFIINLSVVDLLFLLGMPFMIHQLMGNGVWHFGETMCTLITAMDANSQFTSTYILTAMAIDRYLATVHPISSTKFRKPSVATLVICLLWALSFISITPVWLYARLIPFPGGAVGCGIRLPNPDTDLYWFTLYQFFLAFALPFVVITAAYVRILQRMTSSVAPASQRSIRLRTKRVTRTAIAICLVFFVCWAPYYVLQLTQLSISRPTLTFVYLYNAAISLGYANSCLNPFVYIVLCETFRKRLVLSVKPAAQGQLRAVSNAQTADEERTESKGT
# UniProt Q969V1, whole entry: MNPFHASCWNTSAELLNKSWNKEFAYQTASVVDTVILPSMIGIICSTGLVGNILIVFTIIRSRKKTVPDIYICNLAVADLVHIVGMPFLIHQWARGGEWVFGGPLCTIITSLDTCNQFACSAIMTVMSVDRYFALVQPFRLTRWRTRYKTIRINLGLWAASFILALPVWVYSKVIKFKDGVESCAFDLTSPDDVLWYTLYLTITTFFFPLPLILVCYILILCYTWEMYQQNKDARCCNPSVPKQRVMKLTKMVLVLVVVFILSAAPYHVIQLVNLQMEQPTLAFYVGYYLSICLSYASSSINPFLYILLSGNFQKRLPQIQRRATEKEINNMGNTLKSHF
# Tests used:
# [1] = biological target: Melanin-concentrating hormone receptor 1 (Homo sapiens, UniProt Q99705); test: Binding affinity to human MCHR1 assessed as inhibition of MCH-mediated calcium ion influx by FLIPR assay; format: functional
# Method in brief: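 Functional antagonism at human MCH-R1: cells expressing hMCH-R1 were read by FLIPR for block of MCH-mediated Ca2+ influx, and the value was reported as Kb.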
# [2] = biological target: Melanin-concentrating hormone receptor 2 (Homo sapiens) (UniProt Q969V1); test: Binding affinity to human MCHR2 assessed as inhibition of MCH-mediated calcium ion influx by FLIPR assay; format: functional
smiles,measurement,setting,value
N#Cc1cccc(-c2ccc(N(C(=O)Nc3cc(Cl)cc(Cl)c3)C3CCN(C4CCCC4)CC3)cc2)c1,Kb,[1],3.1 nM
same,Activity,[2],> 3 µM
